Results as given in patent US20250090695A1, “IMMUNOSTIMULANT-CYTOTOXIC CONJUGATE COMPOSITION AND METHODS FOR CANCER TREATMENT” (The Research Foundation for the State University of New York, priority 2022, published 2025).

The chains behind the UniProt entries cited, without tags or fusion partners.
UniProt Q04609, whole entry: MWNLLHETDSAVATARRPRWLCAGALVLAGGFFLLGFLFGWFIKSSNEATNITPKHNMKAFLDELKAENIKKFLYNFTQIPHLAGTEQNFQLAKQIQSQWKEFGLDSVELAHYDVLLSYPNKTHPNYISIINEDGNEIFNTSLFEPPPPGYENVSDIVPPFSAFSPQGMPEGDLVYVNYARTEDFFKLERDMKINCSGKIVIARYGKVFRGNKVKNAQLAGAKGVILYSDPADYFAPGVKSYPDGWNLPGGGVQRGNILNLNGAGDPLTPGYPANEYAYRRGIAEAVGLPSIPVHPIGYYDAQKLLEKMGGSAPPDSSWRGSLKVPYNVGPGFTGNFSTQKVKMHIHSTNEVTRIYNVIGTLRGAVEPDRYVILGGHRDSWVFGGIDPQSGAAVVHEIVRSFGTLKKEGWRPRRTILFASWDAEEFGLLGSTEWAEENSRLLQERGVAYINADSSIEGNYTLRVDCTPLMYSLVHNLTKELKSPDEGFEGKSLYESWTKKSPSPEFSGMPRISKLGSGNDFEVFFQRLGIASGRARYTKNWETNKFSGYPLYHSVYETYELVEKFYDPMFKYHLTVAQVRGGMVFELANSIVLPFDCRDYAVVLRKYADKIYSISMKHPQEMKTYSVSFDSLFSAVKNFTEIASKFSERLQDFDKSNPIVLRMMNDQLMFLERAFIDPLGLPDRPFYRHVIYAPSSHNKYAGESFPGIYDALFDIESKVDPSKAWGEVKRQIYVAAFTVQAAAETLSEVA

Molecular target: PSMA (Homo sapiens, UniProt Q04609)
Experiment: hPSMA expression in RM1-PGLS tumors in vivo, PET imaging with 64Cu-PSMA-617 and blocking
Parameters: expressed in transfected cells; host or cells: RM1-PGLS murine prostate tumour cells implanted in C57BL/6J mice
Conditions: 50 nanomole 2-PMPA before 64Cu-PSMA-617; C57BL/6J mice
Description: PET signal is blocked with the PSMA inhibitor 2-PMPA (50 nanomole) in the right PET imaging scan.
C57BL/6J mice bearing RM1-PGLS tumors (50-135 mm^3) where randomized based on tumor volumes into 2 groups and administered compound intravenously. ^64Cu-PSMA-617 was synthesized according to conventional synthetic methods. (1) Mice in group 1 received 5.0 MBq of 64Cu-PSMA-617 (2 nmol, ^64Cu supplied by the University of Wisconsin in 0.1 M HCl) by intravenously tail-vein catheter. Mice in group 2 received 50 nmol of the PSMA inhibitor, 2-PMPA formulated in sterile PBS pH 7.4 followed by 5.0 MBq of ^64Cu-PSMA-617 (2 nmol). Mice were imaged at 90 min post-injection using Siemens Inveon PET/CT and images were reconstructed using ASIPro software. Region of interest (ROI) analyses on all images were performed using AMIDE with PET imaging results and analyses are shown in FIG. 16.

O=C(O)CCC(CP(=O)(O)O)C(=O)O (stereo not shown) [2-PMPA]
PET signal of 64Cu-PSMA-617 in RM1-PGLS tumor: blocked
